# Binding of CDR-mutated scFvs to a peptide of the spike HR2 region

Reference: Li et al. 2023, doi:10.1038/s41467-023-39022-2. File: FLAb, binding data.

Target: peptide PDVDLGDISGINAS, taken from heptad repeat 2 (HR2) of SARS-CoV-2 spike.

Each scFv is VH, the linker GGGGSGGGGSGGGGS, VL, as in the parent Ab-14, and differs from it in the CDRs of the light chain only.
VH: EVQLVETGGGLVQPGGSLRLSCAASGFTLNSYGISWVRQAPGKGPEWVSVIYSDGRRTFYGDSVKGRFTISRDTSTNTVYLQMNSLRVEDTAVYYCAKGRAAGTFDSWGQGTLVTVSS
VL: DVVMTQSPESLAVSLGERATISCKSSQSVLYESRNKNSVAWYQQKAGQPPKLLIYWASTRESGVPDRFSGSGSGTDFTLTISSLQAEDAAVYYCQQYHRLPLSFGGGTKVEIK

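These sequences belong to a second round, designed from the earlier measurements on random variants of the parent. Several design methods are mixed in this list. The assay is AlphaSeq: two haploid yeast populations carry antibody and antigen on their surface. Mating (16 h, 30 °C) was followed by selection of diploids and sequencing of their barcodes. A regression on co-assayed BCL2-family reference pairs converts the normalised counts of each replicate to an apparent Kd. The assay was run in six technical replicates.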

Variants are written as CDR1, CDR2 and CDR3 of the light chain (limits as in the source). Parent: KSSQSVLYESRNKNSVA, WASTRES, QQYHRLPLS.
Affinities are written as log10 Kd with Kd in nM; a lower number is a better binder.
Replicates are averaged; those with no signal do not enter the mean.
An entry "nd" has no value in the source: the pair was not observed among the diploids in any replicate. This suggests poor binding but is not conclusive.

mean log10 Kd (nM)	detected	CDR-L1	CDR-L2	CDR-L3
0.09	6/6	KSDQGVLYESRNKNHVA	GASTRES	QQYHRLPLS
0.77	6/6	YMSDSMQETIADANHIA	DGEARDV	QQYARLPLI
0.38	6/6	ILSQSVLMGSHLKNSVA	QASTRFS	QQYHRLPLS
-0.04	6/6	KLSQSVLYESRTKNSVA	NAVTRET	QQYHRLPLS
0.32	6/6	MMSQVQGMGQRHINNVA	QTSTREE	QQYDRLPLI
nd	0/6	MLSGVLHMLGAKKNSIA	DLVMRAN	QQYHRLPLM
0.43	6/6	KMSQSVLDESRNKNSVA	AASTRES	QQYHRLPLS
0.10	6/6	KMQGSVMMSSRNDNSVA	DASTREE	QQYHRLPLS
0.81	6/6	KSSQSVLYESRNKNSVA	AASTRES	QQYARLPLS
0.00	6/6	KLSQSVLYESRNKNSVA	WASERES	QQYHRLPLS
-0.12	6/6	KASPSQEYESRNKQSVA	HASLREE	QQYHRLPLS
-0.06	6/6	KISQSMLYESRNKNSVA	NASQRES	QQYHRLPLS
0.11	6/6	KLSQSVLYESRNKNQVA	GASTRMS	QQYHRLPLS
0.48	6/6	KNSQSVLYESRNQNSVA	KASTRES	QQYHRLPLS
-0.14	6/6	KLSQSVLYEDRNKNSVA	NASTRLS	QQYHRLPLS
-0.45	6/6	KVSQSVLYESRNKNAVA	EASTRES	QQYHRLPLS
0.01	6/6	KVMQSELYESRNKNSVA	NASQRES	QQYHRLPLS
-0.12	6/6	KLSQSYHYESRNKNSVA	GASTRES	QQYHRLPLS
0.47	6/6	KHSQSDLYESRNKNSVA	EASTRES	QQYHRLPLS
0.48	6/6	MVYQAAMMGTSTRNNIA	NAEMRPD	QQYHRLPLE
0.11	6/6	KVSQSFLYESRNKNNVA	DASTRES	QQYHRLPLS
0.53	6/6	LLSGSMQYEQRNKNSVA	DASTRES	QAYHRLPLS
0.51	6/6	KLQQSDQYESRVKNAVA	QASVRES	QQYHRLPLS
2.36	5/6	MFSSLMEYGSRYRNSVA	QASVREN	QQYHWLPLS
0.65	6/6	KLGDMVHTLSRNKNSIA	DMRTRES	QQYYRLPLS
0.25	6/6	KLMEQFGHSMDHANNIA	EVDMLAQ	QQYMHLPLI
0.28	6/6	KLRQSELYESRNKNSVA	QASTRES	QQYHRLPLT
-0.45	6/6	KVSQSVLYESRNKNSVA	ESSTRES	QQYHRLPLS
nd	0/6	KSSQSVLYESGNGNSVA	WPSTRES	QQYHRLPLS
0.88	6/6	TLYGLSMSMSKNTNNVA	EMTTRED	QQYDRLPLI
0.51	6/6	KSSISVLYESMNKNSVA	EASTRES	QQYHRLPLS
0.48	6/6	KQSQSVLYESRNKNNVA	DASTRES	QQYHRLPLD
nd	0/6	KSKQSVLSESRNKNPVA	WASTRES	AQYHRLPLS
nd	0/6	IVSQLMLWGMKARNSIA	EAVTRLN	QQYDRLPLM
1.07	6/6	QVFAFNEHLKDQTQAMA	NATMRDQ	QQYERLPLS
-0.32	6/6	KLSQSYLYESRNKNSVA	NASTREK	QQYHRLPLS
-0.43	6/6	KLSQSFLYESRNKNSVA	NASQRES	QDYHRLPLS
0.47	6/6	KISHMVNFESTHINAVA	QMSTREE	QQYFRLPLS
0.27	6/6	KLYVSTMLESHVKNSIA	DLSTRGN	QQYHRLPLS
-0.16	6/6	TIADVMGHMSKNRNNVA	DMDTRGD	QQYNHLPLS
0.31	6/6	SLDSAVGYDLQNKKNIA	EETRVDR	QQYAHLPLM
0.64	6/6	KLSLSTSYLSVNKNSVA	EMSTRGN	QQYDRLPLS
nd	0/6	KSPQSVLYESRNKHSVA	WANTRES	EQYHSLPLS
nd	0/6	KSSQSVLYESRRKNSVA	RASTRES	QQYGRLPLS
nd	0/6	KLSVSYGILEMYRNSVA	QNSTREE	QQYDHLPLS
0.22	6/6	SISGFMKSLSAHKNSVA	DMTNRED	QQYDRLPLS
1.28	6/6	IISQLMLYESATHNSIA	QTSTREE	QQYHHLPLS
0.05	6/6	KVQQSHLYESRNKNSVA	NASTRES	QQYHRLPLS
3.46	1/6	QIAMEMYHDLNDAQNVA	DAMTWIP	QQYSRLPLS
2.57	2/6	KSSQSVLYESRNKNSVA	NASTRES	QQQHRLPLS
0.55	6/6	KQSQSVLYESRNKNAVA	EASTRES	QQYHWLPLS
0.20	6/6	KLSQSVNYESRNKNSVA	NASTRES	QQYHRLPLS
-0.19	6/6	KLQQSELYESRNKNSVA	NASTRME	QQYHRLPLS
nd	0/6	KSSQAVLYESMPNNSVA	WASTREN	QQYHRLPVS
0.54	6/6	KSSQSFLYESRNKNSVA	GASTRDS	QQYHRLPLS
1.37	6/6	KISISHQVESINKSNVA	EMVTRES	QQYDRLPLS
1.08	6/6	HSSQSWLYESRGKNSVA	GASMRES	QQYHRLPLS
0.34	6/6	TLYGLSMSMSKNKNNVA	EMTTRED	QQYDRLPLI
-0.28	6/6	KLQMQMLYESRMMNSVA	DASQRES	QQYHRLPLS
0.00	6/6	KIAQSMAMTSHHINSVA	QSTTREE	QQYNRLPLS
0.95	6/6	KLKQSTLYESRNKNSVA	WASTRLS	QQYHRLPLS
1.78	5/6	MISQLMNLGQFAINSVA	QAEIRNN	QQYDRLPLM
0.34	6/6	HLSDFLSYGKDLQAAVA	GVQTRMT	QQYARLPLL
0.74	6/6	KLSISGLHSSIDKKSIA	ERSTREN	QQYHRLPLS
1.43	6/6	MVNGIMDHLSKNTNNVA	ETTTRNS	QQYDRLPLS
-0.18	6/6	NLSQSWLYESRNKNSVA	GANTRES	QQYHRLPLS
0.27	6/6	KLSMSDLYESRMSNSVA	MASTREK	QQYHRLPLS
-0.07	6/6	KLEQSSPYESRNKNSVA	NASLRCS	QQYHRLPLS
0.58	6/6	KLSWKSLGFENRWMAIA	NTKERNA	QQYARLPLS
nd	0/6	MISQLYNMGTFAINSVA	QASQRNA	QQYDRLPLI
1.37	6/6	TLYGLSMSMAKNKNNVA	EMTTREK	QQYDRLPLI
0.21	6/6	KQSQSELYGSRNKNSVA	DASQRES	QDYHRLPLS
nd	0/6	KDSQIVLYESRNKNSVA	WASTRES	QQYHRLPLF
-0.26	6/6	KLSESFLYESRWKNSVA	DASTREE	QQYHRLPLS
0.53	6/6	KSSQPVLYESRNKNSVA	EASTRES	QQYHRLPLS
1.58	5/6	KLSATYRFESQNKNSIA	EMTTREE	QCYHRLPLS

Picked from the list: the 11 lowest averages where every replicate gave a value.

{"CDR-L1": "KVSQSVLYESRNKNSVA", "CDR-L2": "ESSTRES", "CDR-L3": "QQYHRLPLS", "mean log10 Kd (nM)": "-0.45", "detected": "6/6"}
{"CDR-L1": "KVSQSVLYESRNKNAVA", "CDR-L2": "EASTRES", "CDR-L3": "QQYHRLPLS", "mean log10 Kd (nM)": "-0.45", "detected": "6/6"}
{"CDR-L1": "KLSQSFLYESRNKNSVA", "CDR-L2": "NASQRES", "CDR-L3": "QDYHRLPLS", "mean log10 Kd (nM)": "-0.43", "detected": "6/6"}
{"CDR-L1": "KLSQSYLYESRNKNSVA", "CDR-L2": "NASTREK", "CDR-L3": "QQYHRLPLS", "mean log10 Kd (nM)": "-0.32", "detected": "6/6"}
{"CDR-L1": "KLQMQMLYESRMMNSVA", "CDR-L2": "DASQRES", "CDR-L3": "QQYHRLPLS", "mean log10 Kd (nM)": "-0.28", "detected": "6/6"}
{"CDR-L1": "KLSESFLYESRWKNSVA", "CDR-L2": "DASTREE", "CDR-L3": "QQYHRLPLS", "mean log10 Kd (nM)": "-0.26", "detected": "6/6"}
{"CDR-L1": "KLQQSELYESRNKNSVA", "CDR-L2": "NASTRME", "CDR-L3": "QQYHRLPLS", "mean log10 Kd (nM)": "-0.19", "detected": "6/6"}
{"CDR-L1": "NLSQSWLYESRNKNSVA", "CDR-L2": "GANTRES", "CDR-L3": "QQYHRLPLS", "mean log10 Kd (nM)": "-0.18", "detected": "6/6"}
{"CDR-L1": "TIADVMGHMSKNRNNVA", "CDR-L2": "DMDTRGD", "CDR-L3": "QQYNHLPLS", "mean log10 Kd (nM)": "-0.16", "detected": "6/6"}
{"CDR-L1": "KLSQSVLYEDRNKNSVA", "CDR-L2": "NASTRLS", "CDR-L3": "QQYHRLPLS", "mean log10 Kd (nM)": "-0.14", "detected": "6/6"}
{"CDR-L1": "KLSQSYHYESRNKNSVA", "CDR-L2": "GASTRES", "CDR-L3": "QQYHRLPLS", "mean log10 Kd (nM)": "-0.12", "detected": "6/6"}

Of ten entries with the parent sequence, four were seen in most replicates (averages 0.34 to 2.37), three in one and three in none, so single entries are noisy.
Nonspecific signal, from three strains lacking the peptide, appeared in 4% of pairings of all light chain designs, centred on 2.64 (5% of these signals below 1.59); values are not corrected for it.
Values of this round are not directly comparable with the first-round values of the same sequences.
In the paper, a design with two or fewer of six values counts as a poor binder.